# In PubChem BioAssay AID487 (Columbia University Molecular Screening Center, 2006):
# The entries are a selection whose mix differs from that of the whole data set. Activity calls are given as the source filed them.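 How the source made its calls: active means visually confirmed hit in the image check and inhibition above 20%; inconclusive means visually confirmed hit but inhibition not above 20%; inactive means no visual hit in the image check.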
# Experiment: endothelial E-selectin expression blockers – imaging, HUVEC, immunofluorescence, MLSMR starter and 10KST1 sets, primary screen (AID 487);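 further: signal is fraction of cell area covered by stained E-selectin grains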
# Conditions: HUVEC TNFalpha-induced E-selectin immunofluorescence imaging; at 2 µM; active compounds read high
row,Structure (SMILES),inhibition
1,CCN(CC)CC(O)COC(=O)C(O)(c1ccccc1)C1CCCCC1 (stereo unspecified),inactive: 9.1%
2,CP(=O)(Nc1ccccn1)Oc1ccccc1 (stereo unspecified),inactive: 49.1%
3,CP(=O)(Nc1ccc2c(c1)OCCO2)Oc1ccccc1 (stereo unspecified),inactive: 2.9%
4,CN(C)CCOC(=O)C(O)(c1ccccc1)C1CCCCC1 (stereo unspecified),inactive: -45%
5,Cc1ccc(C)c(NP(C)(=O)Oc2ccccc2)c1 (stereo unspecified),inactive: -32.8%
6,CP(=S)(Nn1cnnc1)Oc1ccccc1 (stereo unspecified),inactive: 56.4%
